pKi: −log10 of the molar value.
tested on: rats; assay: Analgesia testing in the tail-flick test in rats; details: Rat, i. v.; at effect maximum, 20 minutes after administration

Amino acid sequences for entries named in this document (tags omitted).
UniProt P35372, whole entry, looked up: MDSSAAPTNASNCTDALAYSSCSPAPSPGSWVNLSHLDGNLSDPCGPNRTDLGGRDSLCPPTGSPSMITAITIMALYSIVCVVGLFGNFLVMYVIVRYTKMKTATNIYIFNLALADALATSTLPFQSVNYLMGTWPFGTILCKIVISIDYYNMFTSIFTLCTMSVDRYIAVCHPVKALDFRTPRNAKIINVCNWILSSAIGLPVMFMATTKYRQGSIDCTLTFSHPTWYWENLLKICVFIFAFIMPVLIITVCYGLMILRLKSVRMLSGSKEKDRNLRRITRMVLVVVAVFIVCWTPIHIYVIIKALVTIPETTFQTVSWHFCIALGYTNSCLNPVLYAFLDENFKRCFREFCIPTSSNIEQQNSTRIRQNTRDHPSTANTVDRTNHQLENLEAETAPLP

SMILES | Tail-flick ED50
CN(C)C1(c2ccccc2)CCC2(CC1)OCCc1c2[nH]c2ncccc12 (stereo not drawn) | Rat, i. v. ED50: 15 μg/kg

molecular target: human μ-opiate receptor (Homo sapiens, UniProt P35372); assay: μ binding: [3H]-naloxone displacement, membrane preparation of CHO-K1 cells expressing the human μ-opiate receptor; details: not given

SMILES | pKi
CN(C)C1(c2ccccc2)CCC2(CC1)OCCc1c2[nH]c2ccncc12 (stereo not drawn) | 7.83
COCCCC1(N(C)C)CCC2(CC1)OCCc1c2[nH]c2ncccc12 (stereo not drawn) | 7.08
CN(C)C1(CCc2ccccc2)CCC2(CC1)OCCc1c2[nH]c2ncccc12 (stereo not drawn) | 8.85
CNC1(c2ccccc2)CCC2(CC1)OCCc1c2[nH]c2ncccc12 (stereo not drawn) | 6.20
CN(C)C1(c2ccccc2)CCC2(CC1)OCCc1c2[nH]c2ccncc12 (single isomer, unassigned) | 8.72
CNC1(c2cccs2)CCC2(CC1)OCCc1c2[nH]c2ncccc12 (stereo not drawn) | 7.32
CN(C)C1(c2ccccc2)CCC2(CC1)OCCc1c2[nH]c2ncc(C(F)(F)F)cc12 (stereo not drawn) | 6.20
Cc1cccc(C2(N(C)C)CCC3(CC2)OCCc2c3[nH]c3ncccc23)c1 (stereo not drawn) | 7.09
CN(C)C1(c2cccc(F)c2)CCC2(CC1)OCCc1c2[nH]c2ncccc12 (stereo not drawn) | 7.50
CN(C)C1(c2cc3ccccc3s2)CCC2(CC1)OCCc1c2[nH]c2ncccc12 (stereo not drawn) | 7.25
CCC1(N(C)C)CCC2(CC1)OCCc1c2[nH]c2ncccc12 (stereo not drawn) | 9.00
CN(C)C1(c2cccs2)CCC2(CC1)OCCc1c2[nH]c2ccncc12 (stereo not drawn) | 6.52
CN(C)C1(c2ccc3c(c2)OCO3)CCC2(CC1)OCCc1c2[nH]c2ncccc12 (stereo not drawn) | 7.11
CN(C)C1(CCc2ccccc2)CCC2(CC1)OCCc1c2[nH]c2ncc(C(F)(F)F)cc12 (stereo not drawn) | 7.42
